Reference: PMC8050214 (Scientific Reports, 2021)

Amino acid sequences for entries named in this document (tags omitted). A change or cut given only in a name is not applied to a line headed by its entry.
UniProt P14416, whole entry: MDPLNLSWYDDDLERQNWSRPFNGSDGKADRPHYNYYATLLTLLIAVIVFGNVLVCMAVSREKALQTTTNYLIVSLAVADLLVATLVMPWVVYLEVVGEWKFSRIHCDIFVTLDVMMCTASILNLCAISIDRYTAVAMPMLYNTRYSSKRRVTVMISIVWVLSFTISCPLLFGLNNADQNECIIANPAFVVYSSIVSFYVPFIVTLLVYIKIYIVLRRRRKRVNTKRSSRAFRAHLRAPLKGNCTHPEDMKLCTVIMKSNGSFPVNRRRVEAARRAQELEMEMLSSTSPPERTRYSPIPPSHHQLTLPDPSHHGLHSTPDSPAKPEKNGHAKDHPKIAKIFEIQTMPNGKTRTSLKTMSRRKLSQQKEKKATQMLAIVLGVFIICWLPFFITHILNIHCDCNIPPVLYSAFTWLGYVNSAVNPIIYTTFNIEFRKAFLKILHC

Biological target: T1, hD2LR (human dopamine D2 receptor, long splice variant) (Homo sapiens, UniProt P14416)
T1 construct: gene DRD2; full-length long isoform, stably expressed in Flp-In HEK293 cells (G protein BRET assay); C351I G alpha subunits co-transfected as sensors; hD2LR-NLuc fusion with GRK2-Venus in the GRK2 recruitment assay (SCH23390 row)
Assay: BRET G protein (GαoA) activation, Gβγ-Venus / masGRK3ct-NLuc release
Format: cell-based

`Oc1ccc2[nH]cc(CCCCN3CC=C(c4ccccc4)CC3)c2c1` [Roxindole] gave an EC50 of 0.912 nM.
